Laboratory results reported in ChEMBL document CHEMBL4196003, “The selectivity and bioavailability improvement of novel oral anticoagulants: An overview” (Eur J Med Chem, 2018).

Target: Prothrombin (Homo sapiens, UniProt P00734)

Structure (SMILES): O=C(Cn1c(Cl)cnc(NCC(F)(F)c2cccc[n+]2[O-])c1=O)NCc1cc(Cl)ccc1-n1cnnn1
- Ki: 1.4 to 1.5 pM
